Test: IC90 of viability of cells in the absence of infecting HIV-1 / IC50 of virion associated RT activity in HIV-1 infected MT2
Format: functional

Molecule `CC(C)CN(C[C@@H](O)[C@H](Cc1ccccc1)NC(=O)O[C@H]1CCOC1)S(=O)(=O)c1ccc(N)cc1` [AMPRENAVIR] has an SI of 125.
